Measurements reported in ChEMBL document CHEMBL1156129, “Synthesis, structure-activity relationships, and characterization of novel nonsteroidal and selective androgen receptor modulators” (J Med Chem, 2009).

Chains of the proteins cited; added tags and fusions are not shown. Lines headed by an entry give the natural chain unless they say otherwise; changes in a name come on top.
UniProt P10275: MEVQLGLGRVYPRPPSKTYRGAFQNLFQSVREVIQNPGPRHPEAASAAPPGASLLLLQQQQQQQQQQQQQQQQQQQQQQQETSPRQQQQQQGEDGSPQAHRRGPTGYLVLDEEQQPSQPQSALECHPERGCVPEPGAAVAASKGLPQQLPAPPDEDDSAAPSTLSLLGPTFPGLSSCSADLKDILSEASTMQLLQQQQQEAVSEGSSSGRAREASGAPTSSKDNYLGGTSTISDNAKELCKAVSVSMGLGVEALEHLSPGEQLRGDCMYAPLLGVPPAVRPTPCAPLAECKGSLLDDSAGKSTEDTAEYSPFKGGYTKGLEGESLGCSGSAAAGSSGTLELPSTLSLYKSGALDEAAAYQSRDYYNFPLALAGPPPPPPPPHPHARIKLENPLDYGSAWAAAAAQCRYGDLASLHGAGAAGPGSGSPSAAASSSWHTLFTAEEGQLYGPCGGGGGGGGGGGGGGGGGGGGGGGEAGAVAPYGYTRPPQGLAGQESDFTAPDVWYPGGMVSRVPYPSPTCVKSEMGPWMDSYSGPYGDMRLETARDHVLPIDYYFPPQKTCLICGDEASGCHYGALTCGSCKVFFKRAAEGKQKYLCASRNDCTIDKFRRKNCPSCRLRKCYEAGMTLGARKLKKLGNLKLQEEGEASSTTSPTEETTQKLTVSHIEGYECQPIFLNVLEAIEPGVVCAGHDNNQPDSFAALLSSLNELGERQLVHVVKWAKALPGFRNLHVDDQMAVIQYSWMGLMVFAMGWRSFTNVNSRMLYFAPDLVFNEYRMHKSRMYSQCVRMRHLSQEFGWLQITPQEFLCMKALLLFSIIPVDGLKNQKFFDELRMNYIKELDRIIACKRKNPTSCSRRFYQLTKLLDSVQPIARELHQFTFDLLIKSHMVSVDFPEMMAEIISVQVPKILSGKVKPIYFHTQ

Biological target: Androgen receptor (Homo sapiens, UniProt P10275)

## N#Cc1ccc(N2[C@@H]3CC[C@H]2C[C@@H](O)C3)c2ccccc12 (stereo in doubt; 2)
  EC50: 1.58 nM
